US20250084101A1, “COMPOUND FOR INHIBITING AND DEGRADING IRAK4, AND PHARMACEUTICAL COMPOSITION AND PHARMACEUTICAL APPLICATION THEREOF” (XIZANG HAISCO PHARMACEUTICAL CO., LTD., priority 2022, published 2025)
Read-outs that look alike come from different tables or passages of the source.

Amino acid sequences for entries named in this document (tags omitted).
UniProt Q9NWZ3, whole entry: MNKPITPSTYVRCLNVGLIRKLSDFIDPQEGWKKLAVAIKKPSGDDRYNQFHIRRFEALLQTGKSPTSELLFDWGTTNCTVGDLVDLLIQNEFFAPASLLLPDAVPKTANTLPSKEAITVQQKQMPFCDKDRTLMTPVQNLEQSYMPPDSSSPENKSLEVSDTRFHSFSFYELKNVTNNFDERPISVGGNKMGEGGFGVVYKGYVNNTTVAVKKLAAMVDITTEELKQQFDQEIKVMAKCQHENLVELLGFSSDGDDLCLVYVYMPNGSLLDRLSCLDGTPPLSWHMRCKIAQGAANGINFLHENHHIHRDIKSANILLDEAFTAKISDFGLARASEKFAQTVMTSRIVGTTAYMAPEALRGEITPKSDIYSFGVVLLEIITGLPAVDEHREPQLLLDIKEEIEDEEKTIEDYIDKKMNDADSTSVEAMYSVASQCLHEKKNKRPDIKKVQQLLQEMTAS
UniProt Q12809, whole entry: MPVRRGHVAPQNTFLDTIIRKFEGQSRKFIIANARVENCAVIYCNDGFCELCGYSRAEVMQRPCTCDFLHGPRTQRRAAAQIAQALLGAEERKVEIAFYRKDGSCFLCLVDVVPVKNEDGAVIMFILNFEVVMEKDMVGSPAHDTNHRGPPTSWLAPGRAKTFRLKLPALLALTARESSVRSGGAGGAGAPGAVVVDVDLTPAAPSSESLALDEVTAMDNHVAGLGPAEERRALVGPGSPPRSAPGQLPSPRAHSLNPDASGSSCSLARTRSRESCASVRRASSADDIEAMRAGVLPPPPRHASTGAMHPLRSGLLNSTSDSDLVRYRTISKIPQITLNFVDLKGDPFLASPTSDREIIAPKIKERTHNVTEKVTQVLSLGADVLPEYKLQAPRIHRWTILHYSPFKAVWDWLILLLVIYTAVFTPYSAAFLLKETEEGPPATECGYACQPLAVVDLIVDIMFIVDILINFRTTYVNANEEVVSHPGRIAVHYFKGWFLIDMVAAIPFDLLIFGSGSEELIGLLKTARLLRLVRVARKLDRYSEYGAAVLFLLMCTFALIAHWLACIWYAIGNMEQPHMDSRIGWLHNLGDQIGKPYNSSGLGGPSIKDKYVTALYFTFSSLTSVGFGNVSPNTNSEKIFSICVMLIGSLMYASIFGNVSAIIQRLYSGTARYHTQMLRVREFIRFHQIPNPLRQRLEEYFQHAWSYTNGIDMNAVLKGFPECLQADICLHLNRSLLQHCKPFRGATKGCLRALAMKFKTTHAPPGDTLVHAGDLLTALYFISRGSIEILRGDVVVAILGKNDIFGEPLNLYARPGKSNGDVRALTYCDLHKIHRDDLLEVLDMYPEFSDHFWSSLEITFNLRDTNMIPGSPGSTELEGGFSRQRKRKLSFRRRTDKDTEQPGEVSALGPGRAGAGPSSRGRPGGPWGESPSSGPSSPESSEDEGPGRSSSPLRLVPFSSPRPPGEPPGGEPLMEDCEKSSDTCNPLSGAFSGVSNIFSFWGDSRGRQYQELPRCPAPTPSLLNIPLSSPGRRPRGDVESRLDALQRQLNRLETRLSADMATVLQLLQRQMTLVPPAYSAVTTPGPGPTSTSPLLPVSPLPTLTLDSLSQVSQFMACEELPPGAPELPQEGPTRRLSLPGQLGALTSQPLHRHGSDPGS

Experiments:
[1] = molecular target: IRAK4 protein (Homo sapiens, UniProt Q9NWZ3); test: IRAK4 degradation activity in hPBMC cells (24 hours)
Procedure: hPBMC cells are human peripheral blood mononuclear cells. Peripheral venous blood was taken from healthy volunteers, and hPBMCs were isolated using Ficoll density gradient centrifugation (Ficoll-Paque™ PLUS 1.077, GE, Cat. 17-1140-02). Culture conditions: RPMI-1640+10% FBS+1% penicillin-streptomycin solution. The cells were cultured in an incubator at 37° C. and 5% CO2. The cells were plated in a 24-well plate at 1×10^6 cells/well. After plating, compounds at different concentrations were added, and the cells were cultured in an incubator at 37° C. and 5% CO2 for 24 hours. After the culture was completed, the cells were collected, and RIPA lysis buffer (beyotime, Cat. P0013B) was added. The cells were lysed on ice for 20 minutes, and then centrifuged at 12000 rpm at 4° C. for 10 minutes. The protein sample of the supernatant was collected, the protein was quantified using a BCA kit (Beyotime, Cat. P0009), and then the protein was diluted to 1 mg/mL. The expression of IRAK4 (CST, Cat. 4363S) and the internal reference cofilin (CST, Cat. 5175S) were detected using a fully automated western blot quantitative analyzer (Proteinsimple). The expression level of IRAK4 relative to the internal reference was calculated using compass software. […] An IRAK4 degradation-drug concentration curve was fit using Graphpad Prism 8 software, and the DC50 was calculated.

[2] = molecular target: hERG potassium ion channel (Homo sapiens, UniProt Q12809); test: Effect on hERG potassium ion channel (manual patch-clamp, CHO cells)
Excerpt: Experimental platform: electrophysiological manual patch-clamp system
Cell line: Chinese hamster ovary (CHO) cell line stably expressing hERG potassium ion channel
Experimental method: In CHO (Chinese Hamster Ovary) cells stably expressing hERG potassium channel, whole cell patch-clamp technique was used to record hERG potassium channel current at room temperature. The glass microelectrode was made of a glass electrode blank (BF150-86-10, Sutter) by a puller. The tip resistance after filling the liquid in the electrode was about 2-5 MQ. The glass microelectrode can be connected to the patch-clamp amplifier by inserting the glass microelectrode into an amplifier probe. The clamping voltage and data recording were controlled and recorded by the pClamp 10 software through a computer. The sampling frequency was 10 kHz, and the filtering frequency was 2 kHz. […]
Data processing: Data analysis processing was carried out by using pClamp 10, GraphPad Prism 5 and Excel software. The inhibition degree of hERG potassium current (peak value of hERG tail current induced at −50 mV) at different compound concentrations was calculated by the following formula: […]
Compound IC50 was calculated using GraphPad Prism 5 software by fitting according to the following equation: […]

[3] = Pharmacokinetic test in mice; conditions: plasma, i.g. 10 mg/kg
Procedure: Experimental animals: Male ICR mice, about 25 g, 6 mice/compound, purchased from Chengdu Ddossy Experimental Animals Co., Ltd.
Test design: On the day of the experiment, 6 ICR mice were randomly grouped according to their body weights. The animals were fasted with water available for 12 to 14 h one day before the administration, and were fed 4 h after the administration.
• Vehicle for intravenous administration: 5% DMA+5% Solutol+90% Saline; • Vehicle for intragastric administration: 5% DMSO+30% PEG400+65% (20% SBE-CD); (DMSO: dimethyl sulfoxide; DMA: dimethylacetamide; Solutol: polyethylene glycol-15-hydroxystearate; PEG400: polyethylene glycol 400; SBE-β-CD: sulfobutyl-β-cyclodextrin; Saline: physiological saline)
Before and after the administration, 0.15 mL of blood was taken from the orbit of the animals under isoflurane anesthesia and placed in an EDTAK2 centrifuge tube. The blood was centrifuged at 5000 rpm and 4° C. for 10 min to collect plasma. The blood collection time points for the intravenous administration group and intragastric administration group were 0 min, 5 min, 15 min, 30 min, 1 h, 2 h, 4 h, 7 h and 24 h. Before analysis and detection, all samples were stored at −60° C. The samples were analyzed quantitatively by LC-MS/MS.

Question: For `Cn1nc(C2CCC(=O)NC2=O)c2cccc(C#CCOC3CCN(C[C@H]4CC[C@H](n5cc(NC(=O)c6cnn7ccc(N8C[C@H]9C[C@@H]8CO9)nc67)c(C(F)F)n5)CC4)CC3)c21` (some centres unmarked), which “Remaining IRAK4 protein IRAK4%” value ([1]; 100 nM, relative to vehicle control) is on record?
Answer: Its value is “A (A ≤ 10%)”.

Question: And the IC50 [2]?
Answer: The IC50 was 1 to 30 µM.

Question: Which AUC0-t [3] does the source give for `Cn1nc(C2CCC(=O)NC2=O)c2cccc(C#CCO[C@@H]3CCN(C[C@H]4CC[C@H](n5cc(NC(=O)c6cnn7ccc(N8CCO[C@H](CO)C8)nc67)c(C(F)F)n5)CC4)C[C@@H]3F)c21` (single isomer, unassigned) here?
Answer: The AUC0-t was 3938 ± 1106 ng·h/mL.

Question: And the DC50 ([1]; read-out: DC50 for IRAK4 protein degradation)?
Answer: The DC50 was under 0.02 µM.

Question: And the IC50 ([2]; read-out: IC50 for inhibitory effect on hERG potassium channel current, CHO cells stably expressing hERG, whole cell patch-clamp)?
Answer: Its IC50 is over 40 µM.
